Source: PubChem BioAssay AID1434 (Sanford-Burnham Center for Chemical Genomics, 2008)
The list shows a part of the results, in another mix than the full data. Calls of active or inactive are those of the source.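 The calls were made as follows: active = mean inhibition across duplicate retests at 20 µM reaching about 50% (limit read from the data); inactive = the rest, inconclusive results apart.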

Sequences of proteins named here, by UniProt entry; tags and fusion partners are left off.
UniProt Q01196, whole entry, looked up: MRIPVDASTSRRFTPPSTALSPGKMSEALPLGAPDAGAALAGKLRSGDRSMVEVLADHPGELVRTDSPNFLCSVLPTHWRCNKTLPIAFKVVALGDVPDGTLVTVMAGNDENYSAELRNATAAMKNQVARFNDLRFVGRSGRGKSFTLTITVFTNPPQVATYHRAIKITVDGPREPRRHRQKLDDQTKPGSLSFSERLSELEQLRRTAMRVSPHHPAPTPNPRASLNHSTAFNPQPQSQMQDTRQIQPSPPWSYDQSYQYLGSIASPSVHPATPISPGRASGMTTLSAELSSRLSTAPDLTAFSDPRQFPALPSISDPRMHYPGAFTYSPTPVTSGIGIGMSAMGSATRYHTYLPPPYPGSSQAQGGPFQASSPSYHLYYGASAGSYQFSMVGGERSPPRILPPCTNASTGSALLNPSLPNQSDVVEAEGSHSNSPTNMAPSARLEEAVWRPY
UniProt Q13951, whole entry, looked up: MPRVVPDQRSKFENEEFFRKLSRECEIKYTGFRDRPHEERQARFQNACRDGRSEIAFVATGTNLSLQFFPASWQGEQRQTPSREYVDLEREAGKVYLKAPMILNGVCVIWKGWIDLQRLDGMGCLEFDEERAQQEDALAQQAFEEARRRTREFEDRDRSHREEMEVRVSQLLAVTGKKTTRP

target: Runt-related transcription factor 1 (Homo sapiens) + Core-binding factor subunit beta (Homo sapiens) (UniProt Q01196+Q13951); assay: disruptors of Runt domain/CBFb-SMMHC interaction – biochemical, FRET, Cerulean-Runt, Venus-CBFb-SMMHC, uHTS, primary screen (AID 1434); details: Cerulean-Runt/Venus-CBFb-SMMHC FRET ratio 530/480, 1 h; at 20 µM; active compounds read high;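 also: 0% = DMSO wells and 100% = wells with excess untagged CBFb-SMMHC; inhibitors lower the FRET ratio by blocking Runt binding to CBFb-SMMHC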

| SMILES | inhibition |
| --- | --- |
| CCC(C)N(CC(C)C)C(=S)SC(NC(C)=O)C(Cl)(Cl)Cl (stereo not given) | inactive: 3.7% |
| CCOC(=O)c1ccc(NC(=O)C(C)(CCl)SC)cc1 (stereo not given) | inactive: 0.4% |
| O=C(COc1ccccc1)OC1CN2CCC1CC2 (stereo not given) | inactive: -3.1% |
| COP1(=S)c2c(C)nn(CCC#N)c2N=C(c2ccc(F)cc2)N1C (stereo not given) | inactive: -7.7% |
| O=[N+]([O-])c1ccc(Nc2ccc(Oc3ccc([N+](=O)[O-])cc3[N+](=O)[O-])cc2)c([N+](=O)[O-])c1 | inactive: -1.4% |
| O=P(Nc1ccccn1)(c1cccc2ccccc12)c1cccc2ccccc12 | inactive: -1.3% |
| Cc1cc(SC(NC=O)C(Cl)(Cl)Cl)ncn1 (stereo not given) | inactive: 43% |
| CCOC(=O)Nc1cccc([As](=O)(O)O)c1 | inactive: -0.7% |
| Cc1cc(SC(NC(=O)c2ccccc2)C(Cl)(Cl)Cl)nc(C(C)C)n1 (stereo not given) | inactive: 20.8% |
| CCOC(=O)Nc1ccc([As](=O)(O)O)c(O)c1 | inactive: 2.8% |
| O=[N+]([O-])c1cc([N+](=O)[O-])c(-c2ccn[nH]2)s1 | inactive: 7.1% |
| CCN(CC)C(=S)SC(NC=O)C(Cl)(Cl)Cl (stereo not given) | inactive: 15.1% |
| CC(C)NC(=O)NP(=O)(Oc1ccccc1)Oc1ccccc1 | inactive: -1.2% |
| CC(C)c1ccc(OP(=O)(Nc2ccccn2)Oc2ccccc2F)cc1 (stereo not given) | inactive: -2.1% |
| ClCCSc1nnc(-c2cccnc2)o1 | inactive: -4.1% |
| Cc1ccc2nc3c(c(C)c2c1)CC(C(Cl)Cl)S3 (stereo not given) | inactive: 2.1% |
| Cc1ccc(OP(=O)(Nc2ccc([N+](=O)[O-])cn2)Oc2ccc(C)cc2)cc1 | inactive: 2.3% |
| O=[As](O)(c1ccc(O)cc1)c1ccccc1O | inactive: 2.1% |
| C[As](=O)(O)c1cccc(C(=O)O)c1 | inactive: -5.3% |
| COc1ccc(N/C(=N/P(=O)(N2CCOCC2)N2CCOCC2)N2CCOCC2)cc1 | inactive: 8.1% |
| COc1cc(I)ccc1[As](=O)(O)O | inactive: 0.5% |
| COc1ccc2nc(NP(=O)(c3ccccc3)c3ccccc3)sc2c1 | inactive: 2.3% |
| Cc1cc(=O)[nH]c(N[N+](=O)[O-])n1 | inactive: -3.6% |
| O=C(OC1CN2CCC1CC2)C12CC3CC(CC(C3)C1)C2 (stereo not given) | inactive: -5.3% |
| Cc1c2c(nc3ccccc13)SC(C(Cl)Cl)C2 (stereo not given) | inactive: 3% |
| CCOP(=O)(Nc1cccc2ccccc12)OCC | inactive: 0.8% |
| COc1cc(C2NCCC3(OCCO3)C2(C)C)cc(OC)c1OC (stereo not given) | inactive: 2.4% |

| SMILES | inhibition |
| --- | --- |
| CCCOP(=S)(Nc1nc(N)cc(=O)[nH]1)OCCC | inactive: 0.4% |
| Cc1ccc(NCCc2c([N+](=O)[O-])cc([N+](=O)[O-])cc2[N+](=O)[O-])cc1 | inactive: -5.1% |
| Nc1cccc2c([As](=O)(O)O)cccc12 | inactive: -19.2% |
| O=[As](O)(c1cccc(O)c1)c1cccc(O)c1 | inactive: -1.7% |
| Cc1cccc(OCC(=O)OC2CN3CCC2CC3)c1 (stereo not given) | inactive: 1% |
| COc1cc(C(=O)NCC2(N3CCOCC3)CCCCC2)cc(Cl)c1OC(C)C | inactive: -0.6% |
| O=[As](O)(O)c1cccnc1 | inactive: 1.4% |
| O=C(OC1CN2CCC1CC2)c1ccc(Cl)cc1 (stereo not given) | inactive: -3.1% |
| O=[N+]([O-])c1ccc2c(c1)nnn2O | inactive: -2.2% |
| CN(C(=O)Cc1ccccc1)[C@@H]1CC[C@]2(CCCO2)C[C@H]1N1CCCC1 | inactive: 0% |
| CCOP1(=S)c2c(C)nn(CCC#N)c2N=C(c2ccc(F)cc2)N1C (stereo not given) | inactive: -5% |
| NC(=O)Nc1ccc([As](=O)(O)O)cc1 | inactive: 0.7% |
| Nc1ccccc1[As](=O)(O)c1ccccc1 | inactive: -0.6% |
| O=C(O)COc1ccc([As](=O)(O)O)cc1[N+](=O)[O-] | inactive: -2.6% |
| CS(=O)(=O)c1cc([N+](=O)[O-])c2no[n+]([O-])c2c1 | inactive: -86.8% |
| O=P(Nc1nccs1)(c1ccccc1)c1nc2ccccc2s1 (stereo not given) | active: 64.7% |
| O=P(Nc1nccs1)(Oc1ccccc1)Oc1ccccc1 | inactive: -5.8% |
| CCOP1(=S)c2c(C)nn(CCC#N)c2N=C(c2ccccc2F)N1C (stereo not given) | inactive: 1.4% |
| O=P1(Nc2ccc(Br)cn2)COc2ccccc2OC1 | inactive: -2.6% |
| Cc1ccc(OCC(=O)OC2CN3CCC2CC3)cc1 (stereo not given) | inactive: 3.7% |
| O=[As](O)(c1cccs1)c1cccs1 | inactive: -3% |
| Nc1cccc([As](=O)(O)c2ccccc2)c1 | inactive: -2% |
| O=P1(Nc2ncccn2)COc2ccccc2OC1 | inactive: -1.8% |
| O=C(/C=C/c1ccccc1)OC1CN2CCC1CC2 (stereo not given) | inactive: 0.6% |
| CN(C)C1(CNC(=O)c2ccc(S(C)(=O)=O)cc2)CCCCC1 | inactive: -2.7% |
| CC1CCC(C(C)C)C(OP(=O)(Nc2ccccn2)c2ccccc2)C1 (stereo not given) | inactive: -0.6% |
| Cc1nn(-c2ccccc2)c2c1P(=O)(N1CCOCC1)N(C)C(c1ccccc1)=N2 (stereo not given) | inactive: 1.9% |

| SMILES | inhibition |
| --- | --- |
| O=[As](O)(c1ccccc1Br)c1ccccc1Br | inactive: -2.3% |
| CC(C)/C=N\N=C(\N)N[N+](=O)[O-] | inactive: -2.5% |
| CN(C(=O)Cc1ccc(Cl)c(Cl)c1)[C@@H]1CCCC[C@H]1N1CCCC1 | inactive: -0.4% |
| CC(C)(C)C(=O)NC(Sc1ncccn1)C(Cl)(Cl)Cl (stereo not given) | inactive: -2.8% |
| Clc1n[nH]nc1-c1nn[nH][15n]1 | inactive: -2.9% |
| CCOP(=O)(Nc1ccc(C)cn1)OCC | inactive: 1.9% |
| O=P1(Nc2ccccn2)COc2ccccc2OC1 | inactive: 16.8% |
| c1nnnn1CCn1cnnn1 | inactive: 1.4% |
| CC(C)C(=O)NC(Sc1ccccc1)C(Cl)(Cl)Cl (stereo not given) | inactive: 1.8% |
| O=P(Nc1nccs1)(c1ccccc1)c1ccccc1 | inactive: 1.9% |
| Nc1ccc([As](=O)(O)c2ccc([N+](=O)[O-])cc2)cc1 | inactive: -2.1% |
| C(Cc1nn[nH]n1)Cc1nn[nH]n1 | inactive: -3.2% |
| O=C(OC1CN2CCC1CC2)c1cccc(Cl)c1 (stereo not given) | inactive: 1.5% |
| CC(=O)NC(SC(=S)N(C)C)C(Cl)(Cl)Cl (stereo not given) | inactive: -1% |
| O=[N+]([O-])c1ncn(CCn2cnc([N+](=O)[O-])n2)n1 | inactive: -0.5% |
| O=[As](O)(c1ccccc1)c1ccc(O)cc1 | inactive: 1.2% |
| C[C@H]1OP(=O)(Oc2ccccc2)[C@H](O)[C@H](O)[C@H]1N=[N+]=[N-] (stereo not given in full) | inactive: -3.8% |
| O=P(Nc1nc2ccccc2s1)(c1ccccc1)c1ccccc1 | inactive: -1.2% |
| O=P(Nc1ccccn1)(c1ccc(Br)cc1)c1ccc(Br)cc1 | inactive: -3.1% |
| CN(C)C(=O)Oc1noc2ccccc12 | inactive: -2.9% |
| O=c1c2cc([N+](=O)[O-])ccc2[nH]c2c([N+](=O)[O-])cc([N+](=O)[O-])cc12 | inactive: -9.3% |
| Cc1ccccc1OP(=O)(Nc1ccccn1)Oc1ccccc1C | inactive: 1.4% |
| CC(=O)NC(SC(=S)N(CC(C)C)CC(C)C)C(Cl)(Cl)Cl (stereo not given) | inactive: 2.8% |
| Cc1ccc(OP(=O)(Nc2ccccn2)Oc2ccc(C)cc2)cc1 | inactive: 12.7% |
| COC(=O)c1cc2c(s1)N=C(c1ccccc1)N(C)P2(=O)N1CCOCC1 (stereo not given) | inactive: 0.2% |
| CCC(=O)N1C2C3N(C(=O)CC)C1C1N(C(=O)CC)C(C(N1C(=O)CC)N3C(=O)CC)N2C(=O)CC | inactive: 2.7% |
| CCNC(=S)/N=C(\N)N[N+](=O)[O-] | inactive: -0.2% |

| SMILES | inhibition |
| --- | --- |
| O=C(NC1CCS(=O)(=O)C1)NP(=S)(Oc1ccccc1)Oc1ccccc1 (stereo not given) | inactive: 1.8% |
| Cc1ccc(NP(=O)(Oc2cccc(C)c2)Oc2cccc(C)c2)nc1 | inactive: -7.3% |
| CCOC(=O)NC(Sc1ccccc1)C(Cl)(Cl)Cl (stereo not given) | inactive: 0.1% |
| c1ccc(-c2nn[nH]n2)c(-c2nn[nH]n2)c1 | inactive: -4.6% |
| CC(=O)Nc1ccc(Oc2c([N+](=O)[O-])cc([N+](=O)[O-])cc2[N+](=O)[O-])cc1 | inactive: 3.1% |
| CC(=O)Nc1ccc([As](=O)(O)O)c(O)c1 | inactive: -2.5% |
| C[C@@H]1C=CCP(=O)(Oc2ccccc2)O1 (stereo not given in full) | inactive: 0.6% |
| C[C@H]1OP(=O)(Oc2ccccc2)C[C@@H]2O[C@@H]21 (stereo not given in full) | inactive: 1.3% |
| CC(C)(C)C(=O)NC(Sc1ccccc1)C(Cl)(Cl)Cl (stereo not given) | inactive: -1.8% |
| CCOc1ccc(C2=NCC(CBr)S2)cc1 (stereo not given) | inactive: -0.2% |
| O=P1(Nc2nc3ccc(Cl)cc3s2)COc2ccccc2O1 (stereo not given) | inactive: 1.1% |
| CC(C)CC(=O)NC(Sc1ccc(Cl)cc1)C(Cl)(Cl)Cl (stereo not given) | inactive: -0.9% |
| Nc1cc(N)c2nonc2c1[N+](=O)[O-] | inactive: -9.2% |
| Cc1c2non([O-])c-2c(C)[n+](=O)[n+]1[O-] | inactive: 8.6% |
| O=C(NC(Sc1ccncn1)C(Cl)(Cl)Cl)c1ccccc1 (stereo not given) | inactive: -2.7% |
| Oc1ccccc1CNc1ccccn1 | inactive: -1.9% |
| Cc1ccc(OP(=O)(Nc2nccs2)Oc2ccc(C)cc2)cc1 | inactive: -0.6% |
| COc1ccccc1OP(=O)(Nc1ccc(C)cn1)Oc1ccccc1OC | inactive: 2.1% |
| Clc1ccc(Cl)c(NC2=NCC(CBr)S2)c1 (stereo not given) | inactive: 1.7% |
| CN1CCCC(OC(=O)C(c2ccccc2)c2ccccc2)C1 (stereo not given) | inactive: -2.4% |
| NC(=O)c1cc([N+](=O)[O-])cc([N+](=O)[O-])c1N | inactive: -5.6% |
| Cc1ccc(N/C(=N/P(=O)(N2CCOCC2)N2CCOCC2)N2CCOCC2)cc1 | inactive: -1.2% |
| CCN(N=Nc1nonc1N)c1nonc1N | inactive: 2.1% |
| Nc1cccc2ccc([As](=O)(O)O)cc12 | inactive: 4.1% |
